{"sequences": {"note": "Chains of the proteins cited; added tags and fusions are not shown.", "UniProt Q99705, whole entry E4Q/A5T": "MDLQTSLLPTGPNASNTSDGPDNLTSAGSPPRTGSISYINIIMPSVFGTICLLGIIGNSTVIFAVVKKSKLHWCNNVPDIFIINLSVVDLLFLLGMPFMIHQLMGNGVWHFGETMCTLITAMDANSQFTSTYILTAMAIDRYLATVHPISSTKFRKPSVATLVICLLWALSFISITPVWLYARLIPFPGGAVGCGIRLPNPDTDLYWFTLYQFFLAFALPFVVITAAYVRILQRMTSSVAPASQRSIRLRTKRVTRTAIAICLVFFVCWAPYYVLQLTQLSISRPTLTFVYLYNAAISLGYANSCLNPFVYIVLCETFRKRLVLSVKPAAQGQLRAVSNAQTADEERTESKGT"}, "source": "patent US8012984B2", "about": "“Substituted pyrazinone melanin concentrating hormone receptor-1 antagonists and methods” (Bristol-Myers Squibb Company, priority 2007, dated 2011)", "target": "human melanin concentrating hormone receptor (MCHR1) (Homo sapiens, UniProt Q99705, A5T/E4Q)", "assay": "Radioligand binding assay for assessment of MCHR1 activity", "details": "membranes of HEK-293 cells expressing mutated hMCHR1; competition with [125I]-MCH", "experimental": "Compounds of Formula I were initially characterized in an in vitro binding assay to determine their Ki or ability to antagonize binding of a peptide agonist to the human melanin concentrating hormone receptor (MCHR1).\nMembranes from stably transfected HEK-293 cells expressing a mutated (E4Q, AST) hMCHR1 receptor were prepared by dounce homogenization and differential centrifugation. Binding experiments were carried out with 0.5-1.0 ug of membrane protein incubated in a total of 0.2 ml in 25 mM HEPES (pH 7.4) with 10 mM MgCl2, 2 mM EGTA, and 0.1% BSA (Binding Buffer) for 90 min. For competition binding assays, reactions were carried out in the presence of with 0.06-0.1 nM [Phe^n, [^125I]Tyr^19]-MCH and increasing concentrations of unlabeled test molecules. Reactions were terminated by rapid vacuum filtration over 96 well-GFC Unifilter plates pre-coated with 0.075 ml binding buffer containing 1% BSA, and washed 3 times with 0.4 ml of Phospho-buffered Saline (pH 7.4) containing 0.01% TX-100. Filters were dried; 0.05 ml microscint 20 was added to each well and radioactivity was subsequently quantified by scintillation counting on a TopCount™ microplate scintillation counter (Packard). Inhibitory constants were determined by nonlinear least squares analysis using a four parameter logistic equation."}
{"smiles": "Cc1cc(OCC(C)(C)O)nc2ccc(-n3ccnc(Sc4ccc(C(F)(F)F)cc4)c3=O)cc12", "values": [{"measurement": "Ki", "value": 21, "unit": "nM"}]}
